In patent US12048708B2 (RHOSHAN PHARMACEUTICALS, INC., priority 2017, dated 2024):
Read-outs that look alike come from different tables or passages of the source.

Tests used:
[1] = cited from earlier work; for solubility of aspirin: pH 5.5 and above
[2] = Saturation solubility of ASA in organic solvents and TBA-Water systems; format: physicochemical
Description: Procedure for Solubility Determination:

Substance: o-acetylsalicylic acid [ASA]
- solubility ([1]; dimethyl formamide, DMF): 30 mg/mL
- solubility ([1]; dimethyl sulfoxide, DMSO): 41 mg/mL
- solubility ([1]; ethanol): 80 mg/mL
- solubility of aspirin [1]: greater than 100 mg/ml
- solubility of aspirin ([1]; listed as aspirin): more than 100 mg/ml
- solubility in water ([1]; water): about 0.3%
- ~Solubility of Aspirin ([2]; Polyethylene glycol 400): ~150 mg/mL
- ~Solubility of Aspirin ([2]; Propylene glycol): ~155 mg/mL
- ~Solubility of Aspirin ([2]; TBA): ~150 mg/mL
- ~Solubility of Aspirin ([2]; TBA:Water (20:80)): ~9 mg/mL
- ~Solubility of Aspirin ([2]; TBA:Water (25:75)): ~18 mg/mL
- ~Solubility of Aspirin ([2]; TBA:Water (30:70)): ~38 mg/mL
- ~Solubility of Aspirin ([2]; TBA:Water (40:60)): ~50 mg/mL
- ~Solubility of Aspirin ([2]; TBA:Water (60:40)): ~105 mg/mL
- ~Solubility of Aspirin ([2]; TBA:Water (80:20)): ~120 mg/mL
- ~Solubility of Aspirin ([2]; isopropanol): ~140 mg/mL
- ~Solubility of Aspirin ([2]; n-butanol): ~100 mg/mL
- ~Solubility of Aspirin ([2]; n-propanol): ~130 mg/mL
